Values quoted from earlier work in patent US6689382B2, “Soft shell gelatin capsules containing non-steroidal anti-inflammatories” (priority 2002, dated 2004).

Tested on: COX-2 and COX-1

In the case of `Cc1ccc(-c2cc(C(F)(F)F)nn2-c2ccc(S(N)(=O)=O)cc2)cc1` [celecoxib, Celecoxib], the “selectivity for COX-2 relative to COX-1” value is listed as 375 times.
